Measured values: patent US20080305099

System: Aβ40 of cerebral cortex fractions (soluble Aβ40 and insoluble Aβ40)

## recombinant GCP-II protein purified from insect cells (Sf21)
  reduction of insoluble Aβ40 after co-culture with rGCP-II: rGCP-II reduced insoluble Aβ40 by 35%
